Experimental data: US20260384450A1, “MACROCYCLIC AMINOPYRIDINE COMPOUNDS AS EGFR INHIBITORS” (published 2026)
Read-outs that look alike come from different tables or passages of the source.

Chains of the proteins cited; added tags and fusions are not shown. Lines headed by an entry give the natural chain unless they say otherwise; changes in a name come on top. A line that says so, or that is headed by a name, gives the form on record, which may keep a tag or linker. Residues count along the entry.
UniProt P00533, 25-1210 limits assumed: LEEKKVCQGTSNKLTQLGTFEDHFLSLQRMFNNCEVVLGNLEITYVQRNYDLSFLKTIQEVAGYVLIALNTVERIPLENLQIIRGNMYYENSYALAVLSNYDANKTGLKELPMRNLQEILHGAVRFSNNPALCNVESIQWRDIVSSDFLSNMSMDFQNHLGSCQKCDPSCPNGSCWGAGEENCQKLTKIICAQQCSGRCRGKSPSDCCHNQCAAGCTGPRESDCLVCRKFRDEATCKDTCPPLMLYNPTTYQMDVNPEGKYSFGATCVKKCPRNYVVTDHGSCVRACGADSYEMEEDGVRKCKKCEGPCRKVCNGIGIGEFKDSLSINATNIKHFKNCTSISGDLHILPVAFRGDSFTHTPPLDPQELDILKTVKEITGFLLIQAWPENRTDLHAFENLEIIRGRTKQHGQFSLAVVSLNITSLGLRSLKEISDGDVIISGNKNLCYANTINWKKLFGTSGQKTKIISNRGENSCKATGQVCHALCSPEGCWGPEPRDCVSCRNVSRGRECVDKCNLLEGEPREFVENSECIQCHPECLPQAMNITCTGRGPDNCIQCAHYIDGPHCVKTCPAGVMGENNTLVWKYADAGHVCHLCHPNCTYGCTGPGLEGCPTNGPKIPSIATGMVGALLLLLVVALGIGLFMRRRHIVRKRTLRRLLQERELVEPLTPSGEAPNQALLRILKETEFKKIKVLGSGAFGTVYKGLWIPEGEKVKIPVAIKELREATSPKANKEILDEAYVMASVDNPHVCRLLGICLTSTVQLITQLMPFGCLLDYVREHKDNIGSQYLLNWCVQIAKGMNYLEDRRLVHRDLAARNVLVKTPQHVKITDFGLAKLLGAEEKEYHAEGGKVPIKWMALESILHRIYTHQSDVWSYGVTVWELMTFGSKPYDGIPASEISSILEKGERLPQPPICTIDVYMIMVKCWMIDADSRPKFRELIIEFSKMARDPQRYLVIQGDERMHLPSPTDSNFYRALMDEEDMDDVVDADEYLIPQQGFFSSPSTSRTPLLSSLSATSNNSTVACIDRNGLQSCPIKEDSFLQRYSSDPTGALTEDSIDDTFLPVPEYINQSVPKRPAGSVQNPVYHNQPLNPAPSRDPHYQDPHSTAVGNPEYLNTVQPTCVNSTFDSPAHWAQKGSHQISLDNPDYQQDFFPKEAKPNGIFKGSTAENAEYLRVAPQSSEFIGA
UniProt P00533, 25-1210 C797S/L858R limits assumed: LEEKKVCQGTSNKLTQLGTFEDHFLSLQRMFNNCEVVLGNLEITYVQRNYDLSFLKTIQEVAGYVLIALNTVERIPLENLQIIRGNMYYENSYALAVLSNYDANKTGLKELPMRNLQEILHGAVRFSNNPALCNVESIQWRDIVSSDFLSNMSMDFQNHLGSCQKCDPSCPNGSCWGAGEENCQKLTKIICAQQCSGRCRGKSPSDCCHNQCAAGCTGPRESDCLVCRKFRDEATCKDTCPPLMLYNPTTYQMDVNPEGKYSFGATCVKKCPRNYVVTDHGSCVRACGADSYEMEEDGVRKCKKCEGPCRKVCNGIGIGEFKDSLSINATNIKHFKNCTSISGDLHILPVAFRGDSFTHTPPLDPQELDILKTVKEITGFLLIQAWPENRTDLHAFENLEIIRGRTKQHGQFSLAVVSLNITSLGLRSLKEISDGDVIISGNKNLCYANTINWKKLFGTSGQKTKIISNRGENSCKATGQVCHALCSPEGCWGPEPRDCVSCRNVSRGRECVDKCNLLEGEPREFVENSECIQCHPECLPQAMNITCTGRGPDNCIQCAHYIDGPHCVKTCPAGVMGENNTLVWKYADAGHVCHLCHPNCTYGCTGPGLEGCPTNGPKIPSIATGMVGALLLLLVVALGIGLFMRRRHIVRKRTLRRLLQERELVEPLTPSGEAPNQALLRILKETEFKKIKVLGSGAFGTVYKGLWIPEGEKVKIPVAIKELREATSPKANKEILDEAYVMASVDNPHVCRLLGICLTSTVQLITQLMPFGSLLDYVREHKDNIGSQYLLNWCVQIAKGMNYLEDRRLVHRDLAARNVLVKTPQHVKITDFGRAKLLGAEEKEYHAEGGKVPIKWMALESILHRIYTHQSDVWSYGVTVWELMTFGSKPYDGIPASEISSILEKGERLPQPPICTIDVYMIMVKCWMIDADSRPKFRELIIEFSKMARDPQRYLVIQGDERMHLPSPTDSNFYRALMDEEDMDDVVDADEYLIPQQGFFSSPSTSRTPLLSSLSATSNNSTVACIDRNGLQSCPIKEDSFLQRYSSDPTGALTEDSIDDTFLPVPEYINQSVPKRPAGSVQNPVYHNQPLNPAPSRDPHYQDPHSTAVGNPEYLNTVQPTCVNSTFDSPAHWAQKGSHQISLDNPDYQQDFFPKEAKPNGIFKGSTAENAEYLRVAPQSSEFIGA
UniProt P00533, 25-1210 T790M/C797S/L858R limits assumed: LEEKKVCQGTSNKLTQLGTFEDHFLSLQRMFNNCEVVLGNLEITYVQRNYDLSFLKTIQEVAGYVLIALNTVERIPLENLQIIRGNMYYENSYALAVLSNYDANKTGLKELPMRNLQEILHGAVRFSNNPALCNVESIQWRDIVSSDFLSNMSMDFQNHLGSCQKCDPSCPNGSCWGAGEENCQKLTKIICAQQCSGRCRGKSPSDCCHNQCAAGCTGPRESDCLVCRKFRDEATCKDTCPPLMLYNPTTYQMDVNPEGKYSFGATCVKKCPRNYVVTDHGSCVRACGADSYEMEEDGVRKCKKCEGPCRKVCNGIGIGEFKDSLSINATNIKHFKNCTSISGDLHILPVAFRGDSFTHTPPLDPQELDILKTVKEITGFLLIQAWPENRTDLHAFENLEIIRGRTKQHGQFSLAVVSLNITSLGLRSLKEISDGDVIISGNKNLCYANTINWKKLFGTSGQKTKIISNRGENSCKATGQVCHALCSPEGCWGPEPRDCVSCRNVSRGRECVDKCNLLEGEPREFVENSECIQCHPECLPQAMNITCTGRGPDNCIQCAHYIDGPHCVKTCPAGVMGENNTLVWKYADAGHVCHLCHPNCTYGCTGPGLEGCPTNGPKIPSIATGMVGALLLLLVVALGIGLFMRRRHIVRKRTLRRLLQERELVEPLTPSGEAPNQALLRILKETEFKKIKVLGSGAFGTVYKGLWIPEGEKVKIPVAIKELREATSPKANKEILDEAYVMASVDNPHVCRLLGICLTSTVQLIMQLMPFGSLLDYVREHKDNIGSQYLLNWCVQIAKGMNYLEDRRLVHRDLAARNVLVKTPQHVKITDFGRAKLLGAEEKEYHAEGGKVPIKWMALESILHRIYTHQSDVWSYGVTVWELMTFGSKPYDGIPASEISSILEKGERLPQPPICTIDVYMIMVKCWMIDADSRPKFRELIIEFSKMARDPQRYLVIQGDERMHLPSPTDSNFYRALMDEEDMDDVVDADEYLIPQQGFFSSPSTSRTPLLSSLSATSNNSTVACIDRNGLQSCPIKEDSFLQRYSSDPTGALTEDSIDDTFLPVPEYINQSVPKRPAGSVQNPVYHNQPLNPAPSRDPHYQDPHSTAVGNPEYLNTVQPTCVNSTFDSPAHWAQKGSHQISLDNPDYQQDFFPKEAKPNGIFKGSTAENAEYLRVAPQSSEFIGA
UniProt P00533, with tags, fused parts or gaps DEL746-750/C797S limits assumed: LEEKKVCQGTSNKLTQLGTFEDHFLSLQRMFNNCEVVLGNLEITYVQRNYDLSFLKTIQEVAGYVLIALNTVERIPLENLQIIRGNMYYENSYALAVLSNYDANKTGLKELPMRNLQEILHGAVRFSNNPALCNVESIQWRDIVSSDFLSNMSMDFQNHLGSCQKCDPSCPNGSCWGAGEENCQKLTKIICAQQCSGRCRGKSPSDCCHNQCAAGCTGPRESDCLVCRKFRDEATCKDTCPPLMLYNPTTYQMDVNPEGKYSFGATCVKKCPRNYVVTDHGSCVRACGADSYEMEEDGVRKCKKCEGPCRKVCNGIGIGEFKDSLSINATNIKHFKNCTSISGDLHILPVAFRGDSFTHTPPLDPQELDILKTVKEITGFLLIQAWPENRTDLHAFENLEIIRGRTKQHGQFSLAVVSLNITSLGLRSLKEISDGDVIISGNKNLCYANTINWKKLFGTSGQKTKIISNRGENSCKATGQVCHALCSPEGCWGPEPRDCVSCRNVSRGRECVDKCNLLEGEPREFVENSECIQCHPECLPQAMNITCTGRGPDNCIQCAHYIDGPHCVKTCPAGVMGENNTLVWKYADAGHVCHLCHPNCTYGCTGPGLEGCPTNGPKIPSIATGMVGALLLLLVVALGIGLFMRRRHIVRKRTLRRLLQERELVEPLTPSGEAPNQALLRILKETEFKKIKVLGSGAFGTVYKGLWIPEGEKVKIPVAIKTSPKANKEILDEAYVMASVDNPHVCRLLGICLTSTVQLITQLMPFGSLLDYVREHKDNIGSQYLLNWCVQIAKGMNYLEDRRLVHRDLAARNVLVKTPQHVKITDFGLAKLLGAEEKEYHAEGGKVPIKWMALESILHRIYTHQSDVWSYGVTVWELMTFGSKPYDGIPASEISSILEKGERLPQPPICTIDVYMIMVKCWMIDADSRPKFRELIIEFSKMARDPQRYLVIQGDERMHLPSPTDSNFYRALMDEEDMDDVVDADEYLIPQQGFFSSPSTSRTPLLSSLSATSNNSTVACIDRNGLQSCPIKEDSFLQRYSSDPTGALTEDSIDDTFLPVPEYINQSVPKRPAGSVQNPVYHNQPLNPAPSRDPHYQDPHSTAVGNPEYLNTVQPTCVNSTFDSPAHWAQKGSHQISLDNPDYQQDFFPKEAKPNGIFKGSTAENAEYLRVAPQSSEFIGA
UniProt P00533, with tags, fused parts or gaps DEL746-750/T790M/C797S limits assumed: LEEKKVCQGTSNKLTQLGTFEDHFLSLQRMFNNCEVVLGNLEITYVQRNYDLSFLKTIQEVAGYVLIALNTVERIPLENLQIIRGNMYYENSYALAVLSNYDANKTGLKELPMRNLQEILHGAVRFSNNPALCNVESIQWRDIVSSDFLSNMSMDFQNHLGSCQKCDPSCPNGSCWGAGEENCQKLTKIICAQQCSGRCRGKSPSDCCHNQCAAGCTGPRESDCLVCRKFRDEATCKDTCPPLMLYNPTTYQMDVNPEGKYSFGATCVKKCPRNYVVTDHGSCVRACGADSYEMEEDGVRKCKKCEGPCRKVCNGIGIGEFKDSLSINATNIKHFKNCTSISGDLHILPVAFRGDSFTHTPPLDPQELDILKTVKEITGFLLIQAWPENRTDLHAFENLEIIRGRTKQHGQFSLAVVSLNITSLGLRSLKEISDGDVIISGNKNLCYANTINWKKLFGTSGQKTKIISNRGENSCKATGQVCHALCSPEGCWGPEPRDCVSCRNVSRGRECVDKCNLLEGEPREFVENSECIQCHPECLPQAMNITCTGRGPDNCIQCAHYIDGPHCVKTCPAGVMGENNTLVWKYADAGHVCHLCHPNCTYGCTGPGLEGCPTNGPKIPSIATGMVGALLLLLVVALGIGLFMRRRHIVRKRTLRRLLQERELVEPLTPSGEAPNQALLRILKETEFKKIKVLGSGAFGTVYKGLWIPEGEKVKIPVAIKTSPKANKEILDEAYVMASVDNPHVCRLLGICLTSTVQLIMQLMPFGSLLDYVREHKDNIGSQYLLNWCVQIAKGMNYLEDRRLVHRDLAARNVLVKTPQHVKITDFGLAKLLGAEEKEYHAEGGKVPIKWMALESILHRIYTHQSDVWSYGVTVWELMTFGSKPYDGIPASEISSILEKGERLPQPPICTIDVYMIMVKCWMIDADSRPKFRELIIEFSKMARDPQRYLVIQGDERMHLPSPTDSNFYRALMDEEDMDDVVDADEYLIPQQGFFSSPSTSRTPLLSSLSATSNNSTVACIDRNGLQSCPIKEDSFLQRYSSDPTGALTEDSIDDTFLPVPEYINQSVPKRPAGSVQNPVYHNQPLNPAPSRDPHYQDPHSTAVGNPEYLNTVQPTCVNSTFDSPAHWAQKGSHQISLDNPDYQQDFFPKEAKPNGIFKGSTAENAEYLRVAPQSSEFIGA

Key:
EGFR LRCS (L858R/C797S) = EGFR LRCS (L858R/C797S) (Homo sapiens, UniProt P00533, C797S/L858R); assay: Biochemical EGFR kinase assay (Lance Ultra TR-FRET), double mutant L858R/C797S
Experimental: (§1) Biochemical EGFR kinase assays were conducted using Lance Ultra time-resolved fluorescence resonance energy transfer (TR-FRET) technology from Perkin-Elmer. Compounds of the invention were initially diluted to 20 mM in 100% DMSO for storage and made into kinase buffer solution to create a compound concentration ranging from 0.003 μM and 10 μM.
(§2) Briefly, each EGFR enzyme wildtype (EGFR WT), double mutant [del19/C797S (EGFR D19CS) and L858R/C797S (EGFR LRCS)], triple mutant [del19/T790M/C797S (EGFR D19TMCS) and L858R/T790M/C797S (EGFR LRTMCS)], serial diluted EGFR inhibitors, substrate of ULight-poly-GT peptide (PerkinElmer; TRF0100-M) and different concentrations of ATP (Km and 100 μM final assay concentration) were mixed in kinase assay buffer (50 mM HEPES pH 7.4, 10 mM MgCl2, 1 mM EGTA, 2 mM DTT and 0.01% Tween-20) and were added to a 384-well plate (Optiplate™ 384, white, PerkinElmer; 6007290).
(§3) Each kinase reactions were incubated at room temperature for 1 hour and then stopped by the addition of 4 μL of stop solution (10 mM EDTA). The specific Europium-labeled-anti-phosphopeptide antibody (PerkinElmer, AD0069) diluted in LANCE detection buffer was then added to a final concentration of 2 nM. After 60 minutes incubation at room temperature the LANCE signal was measured on an EnVision Multilabel Reader (Perkin-Elmer). Excitation wavelength was set at 320 nm and emission monitored at 615 nm (donor) and 665 nm (acceptor). The IC50 values were determined using GraphPad prism software (GraphPad Software, Inc., San Diego, CA, USA).

EGFR D19CS (del19/C797S) = EGFR D19CS (del19/C797S) (Homo sapiens, UniProt P00533, C797S/DEL746-750); assay: Biochemical EGFR kinase assay (Lance Ultra TR-FRET), double mutant del19/C797S
Experimental: as §1, §2, §3

[1] = target: EGFR D19TMCS (del19/T790M/C797S) (Homo sapiens, UniProt P00533, C797S/DEL746-750/T790M); assay: Biochemical EGFR kinase assay (Lance Ultra TR-FRET), triple mutant del19/T790M/C797S
Experimental: as §1, §2, §3

EGFR WT = EGFR WT (Homo sapiens, UniProt P00533); assay: Biochemical EGFR kinase assay (Lance Ultra TR-FRET), wildtype
Experimental: as §1, §2, §3

[2] = target: EGFR LRTMCS (L858R/T790M/C797S) (Homo sapiens, UniProt P00533, C797S/L858R/T790M); assay: Biochemical EGFR kinase assay (Lance Ultra TR-FRET), triple mutant L858R/T790M/C797S
Experimental: as §1, §2, §3

[3] = read-out: EGFR LRCS IC50, ATP 1 mM
[4] = read-out: EGFR LRCS IC50, ATP Km
[5] = read-out: EGFR D19CS IC50, ATP 1 mM
[6] = read-out: EGFR D19CS IC50, ATP Km
[7] = read-out: EGFR D19TMCS IC50, ATP 1 mM
[8] = read-out: EGFR D19TMCS IC50, ATP Km
[9] = read-out: EGFR WT IC50, ATP 1 mM
[10] = read-out: EGFR LRTMCS IC50, ATP 1 mM
[11] = read-out: EGFR LRTMCS IC50, ATP Km
[12] = read-out: IC50, EGFR-LRCS, 1 mM, ATP 1 mM, EGFR L858R/C797S
[13] = read-out: IC50, EGFR-LRCS, Km, ATP at Km, EGFR L858R/C797S
[14] = read-out: IC50, EGFR-D19CS, 1 mM, ATP 1 mM, EGFR del19/C797S
[15] = read-out: IC50, EGFR-D19CS, Km, ATP at Km, EGFR del19/C797S
[16] = read-out: IC50, EGFR D19TMCS, Km, ATP at Km, EGFR del19/T790M/C797S
[17] = read-out: IC50, EGFR WT, 1 mM, ATP 1 mM, EGFR wildtype
[18] = read-out: IC50, EGFR WT, Km, ATP at Km, EGFR wildtype
[19] = read-out: IC50, EGFR LRTMCS, 1 mM, ATP 1 mM, EGFR L858R/T790M/C797S
[20] = read-out: IC50, EGFR LRTMCS, Km, ATP at Km, EGFR L858R/T790M/C797S

IC50 (EGFR LRCS (L858R/C797S); [3]) [nM]	IC50 (EGFR LRCS (L858R/C797S); [4]) [nM]	IC50 (EGFR D19CS (del19/C797S); [5]) [nM]	IC50 (EGFR D19CS (del19/C797S); [6]) [nM]	IC50 [1, 7] [nM]	IC50 [1, 8] [nM]	IC50 (EGFR WT; [9]) [nM]	IC50 (EGFR WT; read-out: EGFR WT IC50, ATP Km) [nM]	IC50 [2, 10] [nM]	IC50 [2, 11] [nM]	IC50 (EGFR LRCS (L858R/C797S); [12]) [nM]	IC50 (EGFR LRCS (L858R/C797S); [13]) [nM]	IC50 (EGFR D19CS (del19/C797S); [14]) [nM]	IC50 (EGFR D19CS (del19/C797S); [15]) [nM]	IC50 [1, 16] [nM]	IC50 (EGFR WT; [17]) [nM]	IC50 (EGFR WT; [18]) [nM]	IC50 [2, 19] [nM]	IC50 [2, 20] [nM]	SMILES
100 to 1000	10 to 100	100 to 1000	10 to 100	< 10	< 10	> 1000	10 to 100	10 to 100	< 10										CO[C@H]1CC[C@H](Nc2ccnc(-c3cnc4cc3N[C@@H](C)CCOc3c(cnn3C)-c3nccc(n3)N4)c2)C1
100 to 1000	10 to 100	100 to 1000	10 to 100	< 10	< 10	> 1000	100 to 1000	< 10	< 10										Cn1ncc2c1OCC(C)(C)CNc1cc(ncc1-c1ccc(OC(F)F)cn1)Nc1ccnc-2n1
> 1000	100 to 1000	> 1000	100 to 1000	10 to 100	< 10	> 1000	100 to 1000	10 to 100	< 10										COc1cccnc1-c1cnc2cc1N[C@@H](C)CCOc1c(cnn1C)-c1nccc(n1)N2
> 1000	> 1000	> 1000	> 1000	100 to 1000	10 to 100	> 1000	> 1000	> 1000	10 to 100										Cn1ncc2c1OC[C@H](F)CNc1cc(ncc1-c1ccc(OC(F)F)cn1)Nc1ccnc-2n1
10 to 100	< 10	< 10	< 10	< 10	< 10	> 1000	< 10	< 10	< 10										C[C@H]1CCNc2cc(ncc2-c2cc(C(F)(F)F)n(C)n2)Nc2ccnc(n2)-c2cnn(C)c2O1
10 to 100	< 10	< 10	< 10	< 10	< 10	> 1000	< 10	< 10	< 10										C[C@H]1CCOc2c(cnn2C)-c2nccc(n2)Nc2cc(c(-c3ncc(CN4CC5(COC5)C4)cc3F)cn2)N1
										10 to 100	< 10	10 to 100	< 10	< 10	> 1000	10 to 100	< 10	< 10	Cc1nn(C)c2c1-c1nccc(n1)Nc1cc(c(-c3ccc(C(C)(C)O)cn3)cn1)NCC[C@H](C)O2
100 to 1000	10 to 100	10 to 100	10 to 100	< 10	< 10	> 1000	10 to 100	< 10	< 10										C[C@H]1CCOc2c(cnn2C)-c2nccc(n2)Nc2cc(c(-c3cc(NC4CC(F)(F)C4)ccn3)cn2)N1
< 10	< 10	< 10	< 10	< 10	< 10	> 1000	< 10	< 10	< 10										C[C@H]1CCNc2cc(ncc2-c2ncc(CN3CCN(C)CC3)cc2F)Nc2ccnc(n2)-c2cnn(C)c2O1
10 to 100	< 10	10 to 100	< 10	< 10	< 10	> 1000	< 10	< 10	< 10										C[C@H]1CCNc2cc(ncc2-c2cnc(OC3COC3)cn2)Nc2ccnc(n2)-c2cnn(C)c2O1
										10 to 100	< 10	< 10	< 10	< 10	> 1000	10 to 100	< 10	< 10	Cc1nn(C)c2c1-c1nccc(n1)Nc1cc(c(-c3ccc(C(C)(C)O)cn3)cn1)NCC[C@@H](C)O2

The next lines start with the compound.

SMILES	IC50 (EGFR LRCS (L858R/C797S); [3]) [nM]	IC50 (EGFR LRCS (L858R/C797S); [4]) [nM]	IC50 (EGFR D19CS (del19/C797S); [5]) [nM]	IC50 (EGFR D19CS (del19/C797S); [6]) [nM]	IC50 [1, 7] [nM]	IC50 [1, 8] [nM]	IC50 (EGFR WT; [9]) [nM]	IC50 (EGFR WT; read-out: EGFR WT IC50, ATP Km) [nM]	IC50 [2, 10] [nM]	IC50 [2, 11] [nM]	IC50 (EGFR LRCS (L858R/C797S); [12]) [nM]	IC50 (EGFR LRCS (L858R/C797S); [13]) [nM]	IC50 (EGFR D19CS (del19/C797S); [14]) [nM]	IC50 (EGFR D19CS (del19/C797S); [15]) [nM]	IC50 [1, 16] [nM]	IC50 (EGFR WT; [17]) [nM]	IC50 (EGFR WT; [18]) [nM]	IC50 [2, 19] [nM]	IC50 [2, 20] [nM]
CN1CCCOc2c(cnn2C)-c2nccc(n2)Nc2cc1c(-c1ccn(C(F)F)n1)cn2	> 1000	> 1000	> 1000	> 1000	100 to 1000	< 10	> 1000	> 1000	100 to 1000	< 10									
Cc1nn(C)c2c1-c1nccc(n1)Nc1cc(c(-c3ccc(S(C)(=O)=O)cn3)cn1)N[C@@H](C)CCO2											10 to 100	< 10	< 10	< 10	< 10	> 1000	< 10	< 10	< 10
Cc1nn(C)c2c1-c1nccc(n1)Nc1cc(c(-c3ncc(CN4CC5(C4)CC5(F)F)cc3F)cn1)N[C@@H](C)CCO2	100 to 1000	< 10	10 to 100	< 10	< 10	< 10	> 1000	10 to 100	< 10	< 10									
Cc1nn(C)c2c1-c1nccc(n1)Nc1cc(c(-c3ncc(CN4CC5(C4)CS(=O)(=O)C5)cc3F)cn1)N[C@@H](C)CCO2											10 to 100	< 10	< 10	< 10	< 10	> 1000	< 10	< 10	< 10
C[C@H]1CCOc2c(cnn2C)-c2nccc(n2)Nc2cc(c(-c3cc(N4CC(CC(C)(F)F)C4)ccn3)cn2)N1	> 1000	100 to 1000	> 1000	100 to 1000	10 to 100	< 10	> 1000	100 to 1000	100 to 1000	< 10									
Cc1nn(C)c2c1-c1nccc(n1)Nc1cc(c(-c3ncc(CN4CCC(C5(O)CC5)CC4)cc3F)cn1)N[C@@H](C)CCO2											10 to 100	< 10	< 10	< 10	< 10	> 1000	< 10	< 10	< 10
Cc1nn(C)c2c1-c1nccc(n1)Nc1cc(c(-c3ncc(CN4CCN(C)CC4)cc3F)cn1)NCC[C@@H](C)O2											< 10	< 10	< 10	< 10	< 10	> 1000	< 10	< 10	< 10
C[C@H]1CCOc2c(cnn2C)-c2nccc(n2)Nc2cc(c(-c3csc(C(F)(F)F)n3)cn2)N1	> 1000	10 to 100	> 1000	100 to 1000	< 10	< 10	> 1000	> 1000	10 to 100	< 10									
Cc1nn(C)c2c1-c1nccc(n1)Nc1cc(c(-c3ncc(CN4CC(F)(F)C4)cc3F)cn1)N[C@@H](C)CCO2	100 to 1000	10 to 100	10 to 100	10 to 100	< 10	< 10	> 1000	10 to 100	< 10	< 10									
Cc1nn(C)c2c1-c1nccc(n1)Nc1cc(c(-c3ncc(CN4CC5(CC(O)C5)C4)cc3F)cn1)N[C@@H](C)CCO2											10 to 100	< 10	10 to 100	< 10	< 10	> 1000	10 to 100	< 10	< 10
